These are literature values, as cited in patent US20210147507A1, “METHODS TO AUGMENT OR ALTER SIGNAL TRANSDUCTION” (Bellicum Pharmaceuticals, Inc., priority 2017, published 2021).

Amino acid sequences for entries named in this document (tags omitted). A change or cut given only in a name is not applied to a line headed by its entry.
UniProt P62942: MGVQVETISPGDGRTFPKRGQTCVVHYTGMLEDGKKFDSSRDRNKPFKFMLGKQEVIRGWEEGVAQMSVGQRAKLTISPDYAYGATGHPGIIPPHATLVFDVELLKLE

The target in data set [1] is wt FRB (K2095 T2098 W2101) (Homo sapiens, UniProt P42345+P62942). As to conditions: cited from earlier work.
The target of another data set is FRB-KLW (Homo sapiens, UniProt P42345+P62942, T2098L). The settings on record: cited from earlier work.

For the substance S-o,p-dimethoxyphenyl (DMOP)-rapamycin, the EC50 in data set [1] is approximately 1000 nM; at FRB-KLW it was approximately 5 nM.
